Source: PMC7596085, “The pathogenic S688Y mutation in the ligand-binding domain of the GluN1 subunit regulates the properties of NMDA receptors” (Scientific Reports, 2020)

The chains behind the UniProt entries cited, without tags or fusion partners. Where a name states a change or a piece, a line headed by the entry shows the natural chain unless it says otherwise. Residues count along the entry.
UniProt Q8TCU5, 24-1115: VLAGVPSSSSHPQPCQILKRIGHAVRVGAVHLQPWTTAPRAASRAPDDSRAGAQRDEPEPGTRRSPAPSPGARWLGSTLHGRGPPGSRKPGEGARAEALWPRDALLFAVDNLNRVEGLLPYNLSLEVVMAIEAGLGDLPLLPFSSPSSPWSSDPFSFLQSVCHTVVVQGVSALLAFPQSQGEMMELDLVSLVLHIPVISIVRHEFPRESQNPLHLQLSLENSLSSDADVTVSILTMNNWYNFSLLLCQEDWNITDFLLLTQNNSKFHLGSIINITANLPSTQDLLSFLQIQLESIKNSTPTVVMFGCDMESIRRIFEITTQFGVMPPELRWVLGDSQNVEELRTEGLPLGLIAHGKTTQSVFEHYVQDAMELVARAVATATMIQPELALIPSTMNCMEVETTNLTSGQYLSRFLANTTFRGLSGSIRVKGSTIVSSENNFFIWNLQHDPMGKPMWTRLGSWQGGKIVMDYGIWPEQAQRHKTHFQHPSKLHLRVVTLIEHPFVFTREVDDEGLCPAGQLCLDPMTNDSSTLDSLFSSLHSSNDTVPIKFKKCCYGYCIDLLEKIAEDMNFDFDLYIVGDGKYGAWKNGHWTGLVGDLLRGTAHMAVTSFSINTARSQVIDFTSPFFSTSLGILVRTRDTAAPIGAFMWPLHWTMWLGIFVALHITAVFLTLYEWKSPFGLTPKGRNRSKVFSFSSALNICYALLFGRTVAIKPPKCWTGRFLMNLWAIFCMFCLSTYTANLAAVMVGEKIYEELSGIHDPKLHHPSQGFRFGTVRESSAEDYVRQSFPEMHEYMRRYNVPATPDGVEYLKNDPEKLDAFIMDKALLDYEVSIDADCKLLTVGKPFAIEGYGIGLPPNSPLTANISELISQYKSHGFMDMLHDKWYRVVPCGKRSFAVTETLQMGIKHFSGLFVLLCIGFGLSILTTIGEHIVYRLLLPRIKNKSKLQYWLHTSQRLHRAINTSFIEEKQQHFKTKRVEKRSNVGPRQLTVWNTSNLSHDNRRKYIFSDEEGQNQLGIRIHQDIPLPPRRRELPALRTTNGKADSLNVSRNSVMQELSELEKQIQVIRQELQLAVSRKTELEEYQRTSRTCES

Legend:
[1] = biological target: T1, hippocampal neurons expressing YFP-hGluN1-1a (Rattus norvegicus, UniProt P35439, I267L/M415L/N159S/R212K); assay: NMDA-induced excitotoxicity, hippocampal neurons expressing YFP-hGluN1-1a; format: cell-based; details: 10 µM co-agonist in the presence of 100 µM NMDA, 1 h treatment, measured 23 h later
T1 construct: expressed in transfected cells; host or cells: primary rat hippocampal neurons (E18 Wistar), lentiviral infection with shRNA knock-down of endogenous GluN1
Experimental: Excitotoxicity was measured 23 h after treatment by staining cells with the nuclear marker Hoechst 33,342 and then performing complex image analysis (Fig. 6a,b; see "Methods").
Excitotoxicity was induced as described previously. In brief, the cultured neurons were incubated overnight in 10% MEM (Thermo Fisher Scientific) and 90% salt-glucose (SG) medium containing 114 mM NaCl, 0.219% NaHCO3, 5.292 mM KCl, 1 mM MgCl2, 2 mM CaCl2, 10 mM HEPES, 30 mM glucose, […], and 0.1% phenol red. The following day, the media was replaced with 100% SG and the indicated concentrations of agonists/co-agonists were added to the neurons. […] Nuclear area was measured using ImageJ software (v. 1.52p), and custom-made macro scripts were used to automatically measure only the nuclei of infected cells (identified by YFP expression). […] The ratio of the number of cells in each group was then used to estimate the effects of mixing the two distributions and is expressed as the ratio of pyknotic and non-pyknotic cells. The percentage of pyknotic cells in each condition was then calculated as the number of cells classified as pyknotic divided by the total number of cells in that condition.

hGluN1-4a-S688Y/hGluN3A = hGluN1-4a-S688Y/hGluN3A (UniProt P35439+Q8TCU5, I267L/M415L/N159S/R212K/S688Y); details: peak concentration-response, HEK293
hGluN1-4a/hGluN3A = hGluN1-4a/hGluN3A (UniProt P35439+Q8TCU5, I267L/M415L/N159S/R212K); details: peak concentration-response, HEK293

NCC(=O)O [glycine]
neuronal cell death / excitotoxicity (% of d.n., pyknotic nuclei) [1]: ~100%
Hill coefficient (h) (hGluN1-4a-S688Y/hGluN3A): 1.49 ± 0.10
Hill coefficient (h) (hGluN1-4a/hGluN3A): 1.26 ± 0.24
